Yeast mating assay 2: variants of the scFv Ab-91

Target peptide (SARS-CoV-2 spike, HR2 region): PDVDLGDISGINAS

Parent: Ab-91, a human scFv built as VL, a (GGGGS)3 linker, VH. Only the CDRs of the heavy chain vary.
VL: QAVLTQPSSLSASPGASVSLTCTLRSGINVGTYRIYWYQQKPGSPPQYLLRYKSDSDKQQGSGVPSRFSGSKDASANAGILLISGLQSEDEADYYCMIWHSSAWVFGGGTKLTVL
VH: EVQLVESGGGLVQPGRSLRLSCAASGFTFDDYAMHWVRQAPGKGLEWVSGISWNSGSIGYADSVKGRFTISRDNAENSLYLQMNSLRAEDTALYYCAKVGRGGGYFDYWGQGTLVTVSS

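The starting antibody came from a phage panning campaign against this peptide. Library AAYL51 holds single substitutions and randomly drawn double and triple substitutions in the CDRs. AlphaSeq pools MATa yeast showing the antibodies with MATalpha yeast showing the peptide. Binding brings cells together so that they mate, and sequencing counts the barcode pairs among the diploids. The ratio of observed to expected reads was calibrated, replicate by replicate, on BCL2-family standards whose Kd was known from biolayer interferometry. Mating was done three times.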

Each variant is given by its three heavy chain CDRs, as the data file delimits them; those of the parent are GFTFDDYAMH, GISWNSGSIGYADSVK, VGRGGGYFDY.
Scale: log10 of Kd in nM, estimated from mating counts; low values are strong binders.
Averages over replicates are reported, and they cover detected replicates only.
"n.d." marks a missing value. The strain was present, yet no cells mated with the target were sequenced in that replicate, which points to weak or no binding.
Nonspecific signal, from three strains lacking the peptide, appeared in 21% of pairings of library AAYL51, centred on 4.54 (5% of these signals below 3.26); values are not corrected for it. The control count says in how many pairings with the empty strains this scFv gave a signal, with their mean in brackets.
In this assay the parent's reference entry averaged 1.86; its copy inside this library read 0.88.

| CDR-H1 | CDR-H2 | CDR-H3 | replicates, log10 nM | log10 Kd (nM), mean | control signals |
|---|---|---|---|---|---|
| GFTFDDYAMH | GISWNSGSSGYADNVK | VGHGGGYFDY | n.d. / 4.86 / n.d. | 4.86 | 2/9 (4.11) |
| GFAFDDYAMH | AISWNSGSIIYADSVK | VGRGGGYFDY | n.d. / n.d. / n.d. | n.d. | 0/9 |
| GFTFNDYAMH | GISWNSGSIGYADFVK | VGRGGGYFGY | 4.72 / 4.72 / n.d. | 4.72 | 7/9 (5.13) |
| GFTFDNYAMH | GISWNQGSIGYADSVK | VGRGGGYFDF | 1.85 / 1.78 / 2.19 | 1.94 | 2/9 (4.83) |
| GFTFRNYAMH | GISWNSCSIGYADSVK | VGRGGGYFDY | 2.61 / 1.55 / 2.32 | 2.16 | 0/9 |
| GFTFDDYAFH | GISWNSGHIGYADSVK | VGRRGGYFDY | 1.77 / 2.03 / n.d. | 1.90 | 0/9 |
| GFTFDDYAMH | GISWNSGSIGYADSVK | HYRGGGYFLY | 4.88 / 5.08 / 4.68 | 4.88 | 6/9 (4.58) |
| GFTFDDYAME | GISWNSGRIGYADSVK | VGRGGGYFDY | 4.11 / n.d. / n.d. | 4.11 | 0/9 |
| TFTFDDYAMS | GISWNSGSIGYADSVG | VGRGGGYFDY | 5.43 / 4.96 / n.d. | 5.20 | 5/9 (4.61) |
| GFTFRDYAWH | GGSWNSGSIGYADSVK | VGRGGGYFDY | 4.38 / n.d. / n.d. | 4.38 | 3/9 (3.90) |
| GFGFDDYAMH | GISWNSGSIRYADSVK | VQRGGGYFDY | n.d. / n.d. / n.d. | n.d. | 0/9 |
| GFTFDDYAMM | YISWNSGSIGYADSVK | VGRGGGDFDY | n.d. / n.d. / 3.93 | 3.93 | 6/9 (4.21) |
| GFTFTDYAMH | GISPNSGSIGEADSVK | VGRGGGYFDY | n.d. / 4.15 / n.d. | 4.15 | 2/9 (4.40) |
| GFTFDDYAMH | GISWESGKIGYADSVK | KGRGGGYFDY | n.d. / n.d. / n.d. | n.d. | 1/9 (4.69) |
| GFTFDDYAMH | GIWWNIGSIGYADSVK | VGRGGGYFDY | n.d. / n.d. / n.d. | n.d. | 0/9 |
| GFTFDDYAMH | GISKNSGSIGYADSKK | VGRRGGYFDY | 4.14 / n.d. / n.d. | 4.14 | 0/9 |
| GFTFDDYAMH | GISWNSGSIGYADSVK | LGRGGGYFQY | n.d. / 3.02 / n.d. | 3.02 | 2/9 (2.74) |
| GFTFDDYAMH | GISWNEGSIGYADSVK | VGRMGGYFDY | 3.31 / 3.91 / 2.78 | 3.34 | 1/9 (4.94) |
| GFTFDDYAMH | GISWNSGSIGYYDRVP | VGRGGGYFDY | 4.97 / n.d. / n.d. | 4.97 | 4/9 (4.26) |
| GFTFDKYAMH | PISWNSGSIGYADSVK | VGRGGGYFDC | n.d. / n.d. / n.d. | n.d. | 1/9 (3.95) |
| GFTFDDYAMH | GISWNRPSIGYADSVK | VGRHGGYFDY | 5.29 / n.d. / n.d. | 5.29 | 2/9 (4.75) |
| GGTFDDYAML | GISWNSGSIGYADSVK | VGRGPGYFDY | 4.14 / 3.91 / n.d. | 4.03 | 2/9 (3.63) |
| GFYFDDYAMH | GISWNSGSIGYADPVK | VGRGGGYFLY | 4.63 / 5.59 / 5.91 | 5.37 | 5/9 (5.52) |
| GFTFDHYAMH | GIGWNSGSIGYADSVK | VLRGGGYFDY | 5.08 / 4.28 / n.d. | 4.68 | 1/9 (3.33) |
| GFTFDPYAMH | GISWNSGSIGSADSVK | VGRGGGKFDY | n.d. / n.d. / n.d. | n.d. | 1/9 (5.04) |
| GFTFDDYAMH | GISWNSGGIGYADSVL | CGRGGGYFDY | 3.95 / 4.11 / 4.19 | 4.08 | 3/9 (4.22) |
| GFTFDDYLMH | GISWNSGSIGYADSVK | VGYGGSYFDY | n.d. / 4.62 / n.d. | 4.62 | 4/9 (5.65) |
| GFRFDDYAMH | GISWVSGSIWYADSVK | VGRGGGYFDY | 4.91 / n.d. / n.d. | 4.91 | 1/9 (3.62) |
| GFTFDDYAMH | GISWNSGSIGYADSVK | IGRGNGYFDI | 4.06 / n.d. / n.d. | 4.06 | 1/9 (3.49) |
| GFTFDDTAMH | GISWNSGSIGYGDSVK | VGRGGGYFDY | 2.60 / 2.49 / 2.25 | 2.45 | 4/9 (4.53) |
| GFTFDDYAMH | GISCNSGSIGYADSVK | VGRGGGIFDY | 5.62 / n.d. / n.d. | 5.62 | 6/9 (4.58) |
| GFTFDDYAMH | GISDNSGSIGYADSVK | PGRGGGYFDY | n.d. / 3.88 / n.d. | 3.88 | 1/9 (3.98) |
| GFTFDDYAMH | GISWNSGSICYADSVK | VIRGGGYHDY | n.d. / 4.62 / n.d. | 4.62 | 2/9 (3.31) |
| GFTFDDYAMH | GVSWNSGSIGYADSVK | VGVGGGYCDY | 5.16 / 4.65 / 4.53 | 4.78 | 6/9 (4.84) |
| GFTFDDYAMH | GISWNSGSPGYADSVK | VGRGGGYFDY | 4.21 / n.d. / n.d. | 4.21 | 0/9 |
| GFTFDDYAMH | GISGNSGSIGRADSVK | VGRGGGYFDY | 5.11 / n.d. / n.d. | 5.11 | 2/9 (4.60) |

Data: MIT Lincoln Laboratory AlphaSeq set, Engelhart et al. 2022, doi:10.1038/s41597-022-01779-4, as distributed in FLAb.